One assay deals with HEK293T cells. Put plainly: IL12 p40 ELISA after transient transfection of FKBP-IL12 plasmids. The assay is classed as cell-based, human. Particulars: for Average IL12 ELISA reading, 10 μM Shield-1 / Average IL12 ELISA reading, No Shield-1: HEK293T transiently transfected with 200 ng or 1 μg plasmid, media diluted 1:50, p40 ELISA; for Average IL12 ELISA reading, 10 μM Shield-1: 10 μM Shield-1 for 6 hours; for Average IL12 ELISA reading, No Shield-1: left untreated 6 hours; for Increase in IL12 with Shield-1 over untreated: transient transfection, 10 μM Shield-1, 6 hours. From the text:
Several FKBP (DD)-IL12 and DHFR (DD)-IL12 constructs (as shown in Table 18) were cloned into pLVX-IRES-Puro lentiviral vectors. FKBP(DD) is positioned at either N-terminus (Construct ID # OT-IL12-001, OT-IL12-002 and OT-IL12-003) or C-terminus (OT-IL12-004, OT-IL12-005 and OT-IL12-009) of the fusion construct. ecDHFR (R12Y, Y100I) is located at the N-terminal end of the fusion construct (OT-IL12-007). A p40 signal sequence was inserted next to the DD or IL-12. In several constructs, a furin protease cleavage site or a modified furin site was included.
HEK293T cells were transiently transfected with 200 ng or 1 μg FKBP-IL12 plasmids (OT-IL12-001, OT-IL12-002, OT-IL12-003, OT-IL12-004, and OT-IL12-005), and treated with 10 μM Shield-1 or left untreated for 6 hours. Culture media was collected from transfected cells and diluted 1:50 to measure IL12 levels using p40 ELISA.

The test system of the next assay is HEK-293T cells. Put plainly: Human IL-15 ELISA, ligand dependent IL15 production. To be noted: 24 hrs. Type of assay: cell-based. Here is the method:
To test ligand dependent IL15 production, 1 million HEK-293T cells were plated in a 6-well plate in growth media containing DMEM and 10% FBS and incubated overnight at 37° C. at 5% CO2. Cells were then transfected with 100 ng of OT-L15-001 (constitutive) or OT-IL15-002 (ecDHFR-IL15) using Lipofectamine 2000 and incubated for 48 hrs. Following the incubation, media was exchanged for growth medium containing 10 μM Trimethoprim or vehicle control and further incubated for 24 hrs. Media was collected and the undiluted media samples or media samples diluted 4, 16, 256, 1024, 4096 or 16384-fold were tested using human IL-15 ELISA.
For orientation: In an ELISA, binding on a coated surface is turned into a signal by an enzyme label.

For “OT-IL12-001: p40 signal sequence; FKBP (F36V, L106P); linker1 (GGSGG); p40; linker2 (G4S)3; p35; SEQ ID NO 213299”, in the assay on HEK293T cells, the “Average IL12 ELISA reading, 10 μM Shield-1” value came to 1748.95; the “Average IL12 ELISA reading, No Shield-1” value was 1289.61; the “Increase in IL12 with Shield-1 over untreated” value is reported as “modest increase”.
The matching figures for “OT-IL12-003: p40 signal sequence; FKBP (F36V, L106P); furin (SARNRQKRS); p40; linker ((G4S)3); p35; SEQ ID NO 213301”: 2138.25, 1762.55 and “modest increase”.
As for “OT-IL15-002: IL2 signal sequence; linker [EFSTEF]; ecDHFR (R12Y, Y100I); linker2 [GGSGG]; IL15; SEQ ID NO 213391”, the “Average IL15 ELISA reading” value was found to be 0.820 in the assay with HEK-293T cells (10 μM TMP, media dilution 1 fold); 0.287 in the assay with HEK-293T cells (10 μM TMP, media dilution 4 fold); 0.116 with HEK-293T cells (10 μM TMP, media dilution 16 fold); 0.073 in the assay on HEK-293T cells (10 μM TMP, media dilution 64 fold); 0.057 in the assay with HEK-293T cells (10 μM TMP, media dilution 256 fold); 0.048 in the assay on HEK-293T cells (10 μM TMP, media dilution 1024 fold). Moreover, the “Average IL15 ELISA reading” value was 0.049 in the assay on HEK-293T cells (10 μM TMP, media dilution 4096 fold); 0.049 with HEK-293T cells (10 μM TMP, media dilution 16384 fold); 0.396 in the assay with HEK-293T cells (Vehicle, media dilution 1 fold); 0.154 with HEK-293T cells (Vehicle, media dilution 4 fold); 0.074 in the assay with HEK-293T cells (Vehicle, media dilution 16 fold); 0.056 in the assay on HEK-293T cells (Vehicle, media dilution 64 fold). Further, the “Average IL15 ELISA reading” value with HEK-293T cells (Vehicle, media dilution 256 fold) is 0.053; with HEK-293T cells (Vehicle, media dilution 1024 fold), 0.053; in the assay with HEK-293T cells (Vehicle, media dilution 4096 fold), 0.049; in the assay on HEK-293T cells (Vehicle, media dilution 16384 fold), 0.050.

The record behind these values is patent US11446398B2, “Regulated biocircuit systems” (Obsidian Therapeutics, Inc., priority 2016, dated 2022).
